These are literature values, as cited in patent US10201537B2 (INFLAMMATORY RESPONSE RESEARCH, INC., priority 2013, dated 2019).

“Also recorded” adds a separate entry of the source.

For the data set the following is noted: levocetirizine, oral.

In the case of `O=C(O)COCCN1CCN([C@H](c2ccccc2)c2ccc(Cl)cc2)CC1` [Levocetirizine], the “time to steady state level (in words)” value is “less than two days; also recorded: within two days”.
